The results in this text go back to patent publication US20230009366A1, “Using Alternating Electric Fields at Different Frequencies to Increase Permeability of the Blood Brain Barrier and also to Provide Other Benefits” (Novocure GmbH, priority 2021, published 2023).

The test system of the experiment is GBM39/Luc cells. As to the kind of experiment: Drug sensitivity / synergy with TTFields. It is filed as cell-based, human.

With `O=NN(CCCl)C(=O)NC1CCCCC1` [Lomustine], the “synergy of TTFields plus drug” value is reported as “synergy was found”.
